Like-named read-outs stand apart in the source and are kept apart here.

By UniProt entry, the sequences of proteins in these tests, tags left out. Residues count along the entry.
UniProt Q14432, whole entry: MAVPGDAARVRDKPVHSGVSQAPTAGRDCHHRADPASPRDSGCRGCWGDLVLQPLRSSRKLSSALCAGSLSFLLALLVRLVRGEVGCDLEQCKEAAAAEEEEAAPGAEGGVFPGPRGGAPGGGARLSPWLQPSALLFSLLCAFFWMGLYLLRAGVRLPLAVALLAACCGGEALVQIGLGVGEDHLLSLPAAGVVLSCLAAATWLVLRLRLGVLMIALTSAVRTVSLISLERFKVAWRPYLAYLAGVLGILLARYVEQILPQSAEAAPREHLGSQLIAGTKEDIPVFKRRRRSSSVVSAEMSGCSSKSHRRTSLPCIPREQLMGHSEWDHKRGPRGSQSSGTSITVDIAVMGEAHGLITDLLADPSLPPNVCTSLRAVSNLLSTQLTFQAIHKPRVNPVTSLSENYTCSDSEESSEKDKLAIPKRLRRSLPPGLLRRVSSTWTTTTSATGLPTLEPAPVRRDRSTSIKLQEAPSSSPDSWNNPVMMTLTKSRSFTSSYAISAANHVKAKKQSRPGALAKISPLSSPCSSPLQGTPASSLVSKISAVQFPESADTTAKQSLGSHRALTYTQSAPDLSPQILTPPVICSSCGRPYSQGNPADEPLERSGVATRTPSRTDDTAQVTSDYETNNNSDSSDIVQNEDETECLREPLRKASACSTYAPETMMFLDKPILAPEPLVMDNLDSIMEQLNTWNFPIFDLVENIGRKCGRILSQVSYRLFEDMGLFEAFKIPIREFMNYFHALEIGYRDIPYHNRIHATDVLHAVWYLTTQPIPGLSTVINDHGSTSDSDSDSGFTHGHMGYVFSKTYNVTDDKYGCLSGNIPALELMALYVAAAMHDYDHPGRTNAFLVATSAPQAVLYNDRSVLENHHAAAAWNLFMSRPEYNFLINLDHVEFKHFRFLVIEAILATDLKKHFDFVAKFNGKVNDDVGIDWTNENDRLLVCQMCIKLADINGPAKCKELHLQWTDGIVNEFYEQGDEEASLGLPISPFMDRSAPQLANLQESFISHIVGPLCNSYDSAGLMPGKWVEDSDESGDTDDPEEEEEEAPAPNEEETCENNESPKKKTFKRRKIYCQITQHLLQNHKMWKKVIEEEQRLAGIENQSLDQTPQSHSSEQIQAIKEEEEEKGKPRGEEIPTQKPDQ
UniProt Q13370, whole entry: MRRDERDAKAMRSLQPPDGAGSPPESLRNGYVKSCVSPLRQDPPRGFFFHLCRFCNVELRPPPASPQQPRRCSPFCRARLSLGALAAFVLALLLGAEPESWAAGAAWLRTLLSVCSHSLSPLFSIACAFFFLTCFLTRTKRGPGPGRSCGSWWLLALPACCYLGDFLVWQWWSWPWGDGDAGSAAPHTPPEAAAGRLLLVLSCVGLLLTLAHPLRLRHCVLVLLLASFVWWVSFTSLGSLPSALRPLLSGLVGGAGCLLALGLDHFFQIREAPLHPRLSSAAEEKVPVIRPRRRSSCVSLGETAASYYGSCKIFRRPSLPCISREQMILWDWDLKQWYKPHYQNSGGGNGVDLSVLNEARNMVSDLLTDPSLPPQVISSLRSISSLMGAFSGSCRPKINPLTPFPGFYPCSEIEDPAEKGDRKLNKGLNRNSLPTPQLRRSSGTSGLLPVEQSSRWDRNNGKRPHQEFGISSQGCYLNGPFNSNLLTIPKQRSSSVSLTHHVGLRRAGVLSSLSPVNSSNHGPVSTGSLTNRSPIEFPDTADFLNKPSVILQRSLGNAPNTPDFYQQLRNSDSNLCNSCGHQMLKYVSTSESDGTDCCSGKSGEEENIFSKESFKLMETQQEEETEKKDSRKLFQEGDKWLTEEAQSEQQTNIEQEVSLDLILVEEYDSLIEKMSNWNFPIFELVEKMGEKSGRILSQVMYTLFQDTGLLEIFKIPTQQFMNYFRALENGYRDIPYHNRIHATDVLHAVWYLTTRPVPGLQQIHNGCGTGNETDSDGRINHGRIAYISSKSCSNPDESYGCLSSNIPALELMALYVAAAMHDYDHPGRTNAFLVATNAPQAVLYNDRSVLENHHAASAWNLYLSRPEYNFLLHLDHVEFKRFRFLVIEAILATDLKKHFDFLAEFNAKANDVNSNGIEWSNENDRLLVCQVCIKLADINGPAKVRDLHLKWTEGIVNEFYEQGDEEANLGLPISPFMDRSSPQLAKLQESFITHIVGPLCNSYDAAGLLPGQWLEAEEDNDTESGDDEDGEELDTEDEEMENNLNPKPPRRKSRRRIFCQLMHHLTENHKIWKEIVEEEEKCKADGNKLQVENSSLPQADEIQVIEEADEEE
UniProt Q08499, 303-809 limits assumed: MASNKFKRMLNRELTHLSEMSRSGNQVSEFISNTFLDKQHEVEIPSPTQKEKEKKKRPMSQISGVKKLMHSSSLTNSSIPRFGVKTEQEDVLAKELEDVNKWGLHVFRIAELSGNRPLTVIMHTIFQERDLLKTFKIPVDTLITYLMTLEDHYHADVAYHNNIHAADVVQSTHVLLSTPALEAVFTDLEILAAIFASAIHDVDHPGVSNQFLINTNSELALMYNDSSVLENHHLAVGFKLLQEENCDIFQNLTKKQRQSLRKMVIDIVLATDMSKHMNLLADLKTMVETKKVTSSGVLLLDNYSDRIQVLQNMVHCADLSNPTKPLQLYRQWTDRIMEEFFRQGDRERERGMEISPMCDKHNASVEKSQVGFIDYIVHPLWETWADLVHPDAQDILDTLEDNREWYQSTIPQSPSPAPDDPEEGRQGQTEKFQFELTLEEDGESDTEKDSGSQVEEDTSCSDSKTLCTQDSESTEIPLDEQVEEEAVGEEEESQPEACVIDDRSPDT
UniProt Q12809, whole entry: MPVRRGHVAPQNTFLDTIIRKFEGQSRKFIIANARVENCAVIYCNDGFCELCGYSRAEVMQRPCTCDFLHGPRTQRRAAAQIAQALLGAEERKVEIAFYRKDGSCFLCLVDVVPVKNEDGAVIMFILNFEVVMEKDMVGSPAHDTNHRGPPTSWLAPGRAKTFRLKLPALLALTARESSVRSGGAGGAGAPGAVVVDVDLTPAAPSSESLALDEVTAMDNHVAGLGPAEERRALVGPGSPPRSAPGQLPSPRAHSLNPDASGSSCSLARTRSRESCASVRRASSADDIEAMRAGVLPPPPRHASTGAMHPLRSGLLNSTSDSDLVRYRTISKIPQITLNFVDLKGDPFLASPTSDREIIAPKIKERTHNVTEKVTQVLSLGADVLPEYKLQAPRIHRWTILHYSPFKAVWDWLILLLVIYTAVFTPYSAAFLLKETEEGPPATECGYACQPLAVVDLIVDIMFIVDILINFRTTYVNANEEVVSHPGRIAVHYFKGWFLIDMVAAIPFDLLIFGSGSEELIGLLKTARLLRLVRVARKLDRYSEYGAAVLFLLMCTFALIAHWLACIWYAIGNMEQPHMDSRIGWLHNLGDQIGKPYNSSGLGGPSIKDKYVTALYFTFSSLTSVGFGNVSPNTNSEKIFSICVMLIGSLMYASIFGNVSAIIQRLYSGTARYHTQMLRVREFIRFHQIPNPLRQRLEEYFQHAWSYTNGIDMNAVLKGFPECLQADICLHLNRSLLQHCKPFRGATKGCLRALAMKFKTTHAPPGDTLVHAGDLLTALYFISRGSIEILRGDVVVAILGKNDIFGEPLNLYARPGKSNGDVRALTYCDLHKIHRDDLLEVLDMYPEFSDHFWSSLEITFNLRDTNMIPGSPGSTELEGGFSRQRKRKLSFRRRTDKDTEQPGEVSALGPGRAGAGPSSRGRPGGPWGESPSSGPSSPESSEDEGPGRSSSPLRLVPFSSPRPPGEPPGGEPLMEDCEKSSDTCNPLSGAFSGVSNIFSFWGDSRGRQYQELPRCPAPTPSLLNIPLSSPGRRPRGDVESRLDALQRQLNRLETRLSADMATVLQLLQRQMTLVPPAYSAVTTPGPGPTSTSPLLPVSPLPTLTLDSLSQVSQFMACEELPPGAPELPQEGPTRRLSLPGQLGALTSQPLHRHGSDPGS

Series [1] is described as follows: Oral bioavailability and pharmacokinetic study in rats. Particulars: rat; for major pharmacokinetic profiles (in words): 1 mg/kg iv and po; for AUCINF_obs / AUClast / C0 / T1/2 / Cmax / Tmax: 1 mg/kg; for F: po (oral gavage) 1 mg/kg versus iv 1 mg/kg. On the procedure:
Test Objective: To evaluate the oral bioavailability and other pharmacokinetic parameters of RPL-554, and Compounds 1-2, 10-2, 67, and 69 of the present disclosure in rats following oral gavage at 1 mg/kg.
Animals: Male SD rats, n = 30.
The dosing solution for the RPL-554-iv-1 mg/kg group and the RPL-554-po-1 mg/kg group was prepared as follows: approximately 3.11 mg of RPL-554 was weighed, 0.3 mL of DMSO was added, then 29.7 mL of normal saline was added, and the mixture was vortexed for 2 min. The solution was freshly prepared before use.
The dosing solution for the Compound 10-2-iv-1 mg/kg group and the Compound 10-2-po-1 mg/kg group was prepared as follows: approximately 3.0 mg of Compound 10-2 was weighed and mixed with 0.3 mL of DMSO. After thorough mixing, 29.7 mL of 10% sulfobutyl ether-β-cyclodextrin in normal saline was added, and the mixture was vortexed for 2 min until completely dissolved. The solution was freshly prepared before use.
The dosing solution for the Compound 1-2-iv-1 mg/kg group and the Compound 1-2-po-1 mg/kg group was prepared as follows: approximately 3.0 mg of Compound 1-2 was weighed and mixed with 0.3 mL of DMSO, followed by addition of 29.7 mL of normal saline. The mixture was vortexed for 2 min. The solution was freshly prepared before use.
The dosing solution for the Compound 67-iv-1 mg/kg group and the Compound 67-po-1 mg/kg group was prepared as follows: approximately 3.0 mg of Compound 67 was weighed and mixed with 1.5 mL of purified polyoxyethylene 35 castor oil, followed by addition of 28.5 mL of normal saline. The mixture was vortexed for 2 min and sonicated until completely dissolved. The solution was freshly prepared before use.
The dosing solution for the Compound 69-iv-1 mg/kg group and the Compound 69-po-1 mg/kg group was prepared as follows: approximately 3.0 mg of Compound 69 was weighed and mixed with 1.5 mL of PEG-400. After thorough mixing, 28.5 mL of normal saline was added, and the mixture was vortexed for 2 min and sonicated until completely dissolved. The solution was freshly prepared before use.
Dosing Regimen: Rats in the intravenous groups were administered by tail vein injection, and rats in the oral gavage groups were administered by oral gavage.
Rat dosing and sampling: The rats were divided into ten groups and received the corresponding test compounds at a dosing volume of 10 mL/kg by either intravenous injection via the tail vein or oral gavage. Blood samples of 0.2 mL were collected at 5, 15, and 30 min and at 1, 2, 4, 6, 8, 12, 24, and 48 h after dosing. Each blood sample was placed in a disposable anticoagulant tube and centrifuged at 3,500 rpm for 10 min at 4 °C. Plasma was then separated and stored at -20 °C until analysis.
Plasma Sample Preparation and LCMS Analysis: 50 µL of each plasma sample was transferred to a 1.5 mL centrifuge tube, and 200 µL of an internal standard working solution was added. The mixture was vortexed for 5 min and then centrifuged at 12,000 rpm for 10 min. The supernatant was transferred to an autosampler vial for LC/MS analysis, and chromatographic data were acquired.

Another series has as its target PDE3A (Homo sapiens, UniProt Q14432). In words: PDE enzyme activity inhibition assay (fluorescence polarization, IMAP). (In general: In fluorescence polarisation assays a small probe gives low polarisation when free and higher when bound to something large.)
Another series addresses PDE3B (Homo sapiens, UniProt Q13370). Described as above. The following applies: read-out: PDE3B; FP assay, Table 4.
For a further series, the target named is PDE4D2 (Homo sapiens, UniProt Q08499). The description is as above. Particulars: read-out: PDE4D2; FP assay, Table 4.
Another series deals with hERG channel (Homo sapiens, UniProt Q12809). In words: hERG whole-cell patch-clamp (HEK293 stably expressing the hERG channel). Particulars: hERG tail current. On the procedure: A human embryonic kidney cell line (HEK293) stably expressing the hERG channel was cultured in DMEM medium in a cell culture incubator at 37°C under 5% CO2. The culture medium was supplemented with 10% fetal bovine serum (FBS) and G418 at a final concentration of 400 µg/mL. Prior to the assay, cells were digested with 0.25% trypsin when they reached approximately 75% confluence, as confirmed under an inverted microscope, to obtain a single-cell suspension. The cell suspension was pipetted dropwise onto cell coverslips, and the coverslips were then incubated in a cell culture incubator. After cell attachment, the cells on the coverslips were used for patch-clamp recording. Terfenadine was used as the positive control.
Voltage-clamp parameters were set using Clampex 10.6 software. In the whole-cell configuration, the cells were held at -80 mV for 125 ms and then subjected to a depolarizing voltage step to +50 mV for 5000 ms to activate the hERG channels. The membrane potential was subsequently repolarized to -50 mV for 5000 ms to elicit the characteristic hERG tail current, which was recorded. The tail current was used for data acquisition, measurement, and analysis.
Background: The hERG channel carries a current that helps repolarise heart muscle cells.

The mark [2] stands for this setting: read-out: PDE3A, FP assay, Table 4.

On to `COc1cc2c(cc1OC)-c1cc(N(c3c(C)cc(C)cc3C)C(C)CNC(=O)c3cccc(N)n3)nc(=O)n1CC2` (centres unmarked), for which, in series [1], the “major pharmacokinetic profiles (in words)” value is “generally comparable to that of the reference compound RPL-554” and the F came to 1.24%. In series [1] (iv (tail vein)), this compound displayed an AUCINF_obs of 196.57 ng·h/mL, an AUClast of 193.67 ng·h/mL, a C0 of 339.49 ng/mL and a T1/2 of 1.08 h. Moreover, in series [1] (po (oral gavage)), the AUCINF_obs was 2.43 ng·h/mL; the AUClast is 1.04 ng·h/mL; the Cmax (in general, the maximum level reached in the sampled fluid or tissue) is 0.76 ng/mL; the T1/2 was 2.76 h. The Tmax (usually the time from dosing to the highest level) in series [1] (po (oral gavage)) worked out at 0.83 h.
In series [1] (iv (tail vein)), `COc1cc2c(cc1OC)-c1cc(=Nc3c(C)cc(C)cc3C)n(CCNC(N)=O)c(=O)n1CC2` had an AUCINF_obs of 211.41 ng·h/mL, an AUClast of 210.79 ng·h/mL, a C0 of 333.09 ng/mL and a T1/2 of 1.62 h. In series [1], this compound displayed an F of 1.48%. Moreover, in series [1] (po (oral gavage)), the AUCINF_obs was determined as 3.13 ng·h/mL, the AUClast was 1.59 ng·h/mL, the Cmax came to 0.91 ng/mL and the T1/2 came to 4.60 h. Also, the Tmax in series [1] (po (oral gavage)) was found to be 0.25 h. At PDE3A (read-out: IC50, nM PDE3A, FP assay II, Table 5), the IC50 came to 0.579 nM. The IC50 on PDE3A (setting [2]) came out at 0.579 nM. Also, on PDE3B, the IC50 was 0.775 nM. Moreover, at PDE4D2, the IC50 is 74.4 nM. At hERG channel, the “Inhibition rate (%) 1 µM” value came to 17.2±6.5% and the “Inhibition rate (%) 10 µM” value was found to be 67.2±3.4%.
Take `COc1cc2c(cc1OC)-c1cc(N(c3c(C)cc(C)cc3C)C(C)CNC(N)=O)nc(=O)n1CC2` (single isomer, unassigned) [Compound 1-2]: in series [1], the “major pharmacokinetic profiles (in words)” value is listed as “generally comparable to that of the reference compound RPL-554” and the F is reported as 1.50%. In series [1] (iv (tail vein)), this compound showed an AUCINF_obs of 347.40 ng·h/mL, an AUClast of 347.00 ng·h/mL, a C0 of 748.58 ng/mL and a T1/2 of 1.10 h. In series [1] (po (oral gavage)), this compound gave an AUCINF_obs of 5.21 ng·h/mL, an AUClast of 2.23 ng·h/mL, a Cmax of 1.15 ng/mL and a T1/2 of 9.61 h. In series [1] (po (oral gavage)), the Tmax came to 0.28 h. Also, the IC50 at PDE3A (setting [2]) came out at 0.09 nM. Further, at PDE3B, the IC50 came to 0.0544 nM. In addition, the IC50 on PDE4D2 is 15.3 nM. For the same compound, at hERG channel, the “Inhibition rate (%) 1 µM” value is recorded as 6.9±1.0% and the “Inhibition rate (%) 10 µM” value is recorded as 35.4±2.0%.
Turning to `COc1cc2c(cc1OC)-c1cc(N(c3c(C)cc(C)cc3C)C(C)CNC(=O)c3[nH]nnc3C)nc(=O)n1CC2` (single isomer, unassigned) [Compound 12-1], the IC50 is 0.0451 nM on PDE3A (setting [2]), 0.0695 nM at PDE3B and 1.68 nM on PDE4D2. Further, the “Inhibition rate (%) 1 µM” value on hERG channel turned out to be 11.5±4.6%. Further, the “Inhibition rate (%) 10 µM” value at hERG channel is given as 27.9±5.6%.
Regarding `COc1cc2c(cc1OC)-c1cc(N(c3c(C)cc(C)cc3C)C(C)CNC(=O)c3ncc[nH]3)nc(=O)n1CC2` (single isomer, unassigned) [Compound 10-2], in series [1], the “major pharmacokinetic profiles (in words)” value is “generally comparable to that of the reference compound RPL-554” and the F came out at 1.23%. In series [1] (iv (tail vein)), this compound yielded an AUCINF_obs of 381.58 ng·h/mL, an AUClast of 381.25 ng·h/mL, a C0 of 706.51 ng/mL and a T1/2 of 0.58 h. For the same compound, in series [1] (po (oral gavage)), the AUCINF_obs is 4.69 ng·h/mL, the AUClast is 4.02 ng·h/mL, the Cmax is listed as 3.83 ng/mL and the T1/2 came out at 2.05 h. In addition, in series [1] (po (oral gavage)), the Tmax stood at 0.42 h. The IC50 at PDE3A (setting [2]) came out at 0.0332 nM. Also, at PDE3B, the IC50 came to 0.0467 nM. The IC50 at PDE4D2 stood at 9.79 nM. On hERG channel, the “Inhibition rate (%) 1 µM” value is given as 23.0±4.9% and the “Inhibition rate (%) 10 µM” value came out at 62.5±15.4%.
Turning to `COc1cc2c(cc1OC)-c1cc(N(c3c(C)cc(C)cc3C)C(C)CNC(=O)c3cc(N)ccn3)nc(=O)n1CC2` (centres unmarked), in series [1], the “major pharmacokinetic profiles (in words)” value is “generally comparable to that of the reference compound RPL-554” and the F was found to be 1.84%. Further, in series [1] (iv (tail vein)), the AUCINF_obs stood at 237.56 ng·h/mL, the AUClast amounted to 215.26 ng·h/mL, the C0 amounted to 407.83 ng/mL and the T1/2 turned out to be 2.03 h. Besides, in series [1] (po (oral gavage)), the AUCINF_obs came out at 4.36 ng·h/mL, the AUClast stood at 3.04 ng·h/mL, the highest concentration (Cmax) is listed as 2.62 ng/mL and the T1/2 turned out to be 3.42 h. In series [1] (po (oral gavage)), the Tmax is given as 0.67 h.
Consider `COc1cc2c(cc1OC)-c1cc(N(c3c(C)cc(C)cc3C)C(C)CNC(=O)c3ccccn3)nc(=O)n1CC2` (centres unmarked), for which the IC50 at PDE3A (setting [2]) was found to be 0.0785 nM; on PDE3B, 0.111 nM; at PDE4D2, 1.61 nM. Further, the “Inhibition rate (%) 1 µM” value on hERG channel is given as 7.7±3.6%. Moreover, the “Inhibition rate (%) 10 µM” value on hERG channel came out at 50.5±2.4%.

Values taken from patent EP4825857A1, “TRICYCLIC FUSED HETEROCYCLIC PDE3/4 DUAL INHIBITOR, AND PREPARATION AND USE THEREFOR” (dated 2026).
